{"source": "patent US11168131B2", "about": "“Antibody molecule-drug conjugates and uses thereof” (priority 2015, dated 2021)", "system": "red blood cells", "experiment": "Red blood cell hemolysis assay (MLC, PLC)", "format": "cell-based", "data": [{"smiles": "O=C(O)c1cn(C2CC2)c2cc(N3CCNCC3)c(F)cc2c1=O", "note": "[Ciprofloxacin, reference compound]", "values": [{"measurement": "Hemolysis PLC", "setting": "concentration that led to 50% red blood cell lysis", "value": ">1", "unit": "µg/mL"}, {"measurement": "Hemolysis MLC", "setting": "concentration that led to 100% red blood cell lysis", "value": ">1", "unit": "µg/mL"}, {"measurement": "MLC/MIC", "setting": "ratio of MLC to MIC", "value": ">4"}, {"measurement": "PLC/MIC", "setting": "ratio of PLC to MIC", "value": ">4"}]}]}
